This test deals with T1, MCL-1/FITC-NOXA-B interaction (Homo sapiens, UniProt Q07820).
T1 construct: Recombinant MCL-1_172–327 was expressed and purified as published previously; made in house
As to the kind of experiment: Fluorescence anisotropy competition, MCL-1/FITC-NOXA-B. In kind it is biochemical.

Chains of the proteins cited; added tags and fusions are not shown. Residues count along the entry.
UniProt Q07820, 172-327: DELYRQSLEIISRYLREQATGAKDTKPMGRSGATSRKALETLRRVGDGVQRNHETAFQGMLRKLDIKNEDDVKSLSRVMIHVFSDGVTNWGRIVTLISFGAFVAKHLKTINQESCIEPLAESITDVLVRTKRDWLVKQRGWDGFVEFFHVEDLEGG

A word on the IC50: it is the concentration needed to halve the response being measured.

The molecule `CC[C@H](C)[C@H](NC(=O)[C@H](CCCNC(=N)N)NC(=O)[C@H](CCCNC(=N)N)NC(=O)[C@H](CC(C)C)NC(=O)[C@H](CCC(N)=O)NC(=O)[C@H](C)NC(=O)[C@H](C)NC(C)=O)C(=O)NCC(=O)N[C@@H](CC(=O)O)C(=O)N[C@@H](CCCCN)C(=O)N[C@H](C(=O)N[C@@H](CC(N)=O)C(=O)N[C@@H](CC(C)C)C(=O)N[C@@H](CCCNC(=N)N)C(=O)N[C@@H](CCC(N)=O)C(=O)N[C@@H](CCCCN)C(=O)N[C@@H](CC(C)C)C(=O)N[C@@H](CC(C)C)C(=O)N[C@@H](CC(N)=O)C(N)=O)C(C)C` [compound 5] returned an IC50 of 2.07 ± 0.334 µM.

(Values after publication PMC7610391, “Photocatalytic proximity labelling of MCL-1 by a BH3 ligand” (Communications chemistry, 2019).)
